Measured values taken from US20070255041A1, “Bioengineered Vehicles for Targeted Nucleic Acid Delivery” (priority 2000, published 2007).

Experiments:
SK-OV-3 cells = experiment: pGeneGrip Rhodamine/GFP plasmid delivery, fluorescent microscopy, erbB-2 positive cells; assay type: cell-based, human; details: SK-OV-3, 48 hour time point; FIG. 21
From the text: pGeneGrip Rhodamine/GFP plasmid (Gene Therapy Systems) was used as another reporter plasmid for studying C6.5 sFv′-SP and C6ML3-9 sFv′-SP-mediated gene delivery. In this case, plasmid DNA encoding green fluorescent protein (GFP) was labeled with rhodamine, which allows one to follow internalization of the plasmid DNA as well as the expression of GFP. This reporter facilitated evaluation of the gene delivery efficiency at both DNA and protein expression levels. The formation of protein/DNA complexes between either C6.5 sFv′-SP or C6ML3-9 sFv′-SP and pGeneGrip plasmid DNA were confirmed by gel mobility shift analysis (data not shown). SK-OV-3 and MCF-7 cells were incubated with the protein/DNA complexes and fixed at 6, 24, 48, and 72 hours post-incubation for fluorescent microscopy. FIG. 21 represents the data from the 48 hour time point. […] The rhodamine labeled DNA could be seen inside of SK-OV-3 cells at 24 hours (data not shown). However, the GFP gene expression, was very low, about 1-2% cells being GFP positive in the case of C6ML3-9 sFv′-SP-mediated delivery at 48 hours. It should be noted that, although low, GFP expression level still correlates with the amount of DNA inside of the cells (FIG. 21, compare C6.5 sFv′-SP-DNA with that C6ML3-9 sFv′-SP-DNA). […]

[1] = tested on: plasmid DNA (pGL-control or pXL3031); experiment: Gel mobility shift analysis of complex formation with plasmid DNA; assay type: binding; details: 2.9 pmole (about 90 ng) conjugate, 200 ng plasmid DNA; FIG. 17
Method: The ability of the anti-erbB-2 C6ML3-9 sFv′-salmone protamine (SP) conjugates to complex with plasmid DNA was tested by a gel mobility shift analysis.
The DNA was added last, and the mixture incubated on ice for 1 to 1.5 hour (in the case of kinetics studies, incubation time was from 5 minutes to 60 minutes as indicated). 2 μl of loading buffer (50% glycerol in 1×TE with dye) was added to the 20 μl reaction. The reaction was electrophoresed on 0.8% agarose gel in 1×TAE, 150 V for about an hour at room temperature and stained with EtBr overnight.

## C6ML3-9 sFv′-SP: C6ML3-9 sFv′ coupled via Sulfo-SMCC at its C-terminal sulfhydryl to salmon protamine
SK-OV-3 cells
  gene delivery efficiency at the DNA level (rhodamine-labeled plasmid): over 80%
[1]
  retardation of plasmid DNA band (gel shift): retardation of the plasmid DNA (200 ng) band was observed
